Biological target: T1, EZH2 (zEZH2) (Danio rerio, UniProt Q08BS4)
T1 sequence (Q08BS4 1-760): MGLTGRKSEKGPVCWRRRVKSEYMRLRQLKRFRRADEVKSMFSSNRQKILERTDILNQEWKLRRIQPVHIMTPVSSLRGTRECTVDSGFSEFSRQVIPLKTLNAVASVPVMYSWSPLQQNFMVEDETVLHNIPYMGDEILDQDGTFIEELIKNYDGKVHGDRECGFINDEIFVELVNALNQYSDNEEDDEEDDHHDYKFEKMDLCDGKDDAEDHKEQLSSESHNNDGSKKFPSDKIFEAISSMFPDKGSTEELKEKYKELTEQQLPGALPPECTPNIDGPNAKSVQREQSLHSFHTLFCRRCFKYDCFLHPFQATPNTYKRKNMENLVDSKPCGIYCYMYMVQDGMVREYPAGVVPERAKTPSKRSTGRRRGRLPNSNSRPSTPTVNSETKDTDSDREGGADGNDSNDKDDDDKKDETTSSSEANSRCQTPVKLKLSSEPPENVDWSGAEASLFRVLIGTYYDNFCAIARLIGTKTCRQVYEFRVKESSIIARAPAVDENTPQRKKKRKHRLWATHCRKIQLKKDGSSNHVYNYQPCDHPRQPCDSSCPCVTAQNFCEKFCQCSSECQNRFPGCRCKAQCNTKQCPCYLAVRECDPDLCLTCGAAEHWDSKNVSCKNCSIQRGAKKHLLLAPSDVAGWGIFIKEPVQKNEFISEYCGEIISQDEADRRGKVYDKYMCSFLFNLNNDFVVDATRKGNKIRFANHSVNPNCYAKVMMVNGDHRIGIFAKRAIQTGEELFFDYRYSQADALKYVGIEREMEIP

CCN(c1cc(-c2ccc(CN3CCOCC3)cc2)cc(C(=O)NCc2c(C)cc(C)[nH]c2=O)c1C)C1CCOCC1 [EPZ6438]
SPR (Biacore T200), positive control: Compared to EPZ6438 (a reported EZH2 inhibitor), Tan I showed more strongly binding to EZH2

From publication PMC8171091, “Tanshinone I, a new EZH2 inhibitor restricts normal and malignant hematopoiesis through upregulation of MMP9 and ABCG2” (Theranostics, 2021)
